# Cyclic peptide permeability, from CycPeptMPDB

Values of Townsend et al. 2020, doi:10.26434/chemrxiv.13335941.v1, as listed in CycPeptMPDB.

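Conditions beyond the assay type are not listed; see the original paper. Other peptides of the study may be missing here. Entries at the database's floor value (log10 P of -10) are not listed.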

PAMPA measures passive passage through an artificial lipid membrane.
Permeability is in 10^-6 cm/s, converted from the database's log10 values; higher is more permeable.

The entry for CC(C)C[C@H]1C(=O)N(C)[C@@H](CC(C)C)C(=O)N2CCC[C@@H]2C(=O)N(Cc2ccccc2)CC(=O)N[C@@H](Cc2ccccc2)C(=O)N2CCC[C@@H]2C(=O)N(C)[C@H](C)C(=O)N1C lists PAMPA 1.9 × 10^-6 cm/s.
The entry for CC(C)C[C@@H]1NC(=O)C[C@H](Cc2ccccc2)NC(=O)[C@@H]2CCCN2C(=O)[C@H](Cc2ccccc2)NC(=O)[C@@H](CC(C)C)N(C)C(=O)[C@@H]2CCCN2C(=O)CN(Cc2ccccc2)C1=O lists PAMPA 2.2 × 10^-6 cm/s.
The entry for CC(C)C[C@@H]1C(=O)N(Cc2ccccc2)CC(=O)N2CCC[C@@H]2C(=O)N[C@H](CC(C)C)C(=O)N[C@@H](Cc2ccccc2)C(=O)N2CCC[C@H]2C(=O)N(C)[C@@H](C)C(=O)N1C lists PAMPA 3.9 × 10^-6 cm/s.
The entry for CCCN1CC(=O)N(C)[C@@H](CC(C)C)C(=O)N[C@@H](Cc2ccccc2)CC(=O)N2CCC[C@H]2C(=O)N(C)[C@H](CC(C)C)C(=O)N[C@@H](Cc2ccccc2)C(=O)N2CCC[C@@H]2C1=O lists PAMPA 1.7 × 10^-6 cm/s.
The entry for CCCN1CC(=O)N[C@H](CC(C)C)C(=O)N(Cc2ccccc2)CC(=O)N2CCC[C@H]2C(=O)N[C@@H](CC(C)C)C(=O)N[C@@H](Cc2ccccc2)C(=O)N2CCC[C@H]2C1=O lists PAMPA 0.98 × 10^-6 cm/s.
The entry for CC(C)C[C@H]1C(=O)N[C@@H](Cc2ccccc2)C(=O)N2CCC[C@@H]2C(=O)N[C@H](C)C(=O)N(Cc2ccccc2)CC(=O)N[C@@H](Cc2ccccc2)CC(=O)N2CCC[C@H]2C(=O)N1C lists PAMPA 7.9 × 10^-6 cm/s.
The entry for CC(C)C[C@@H]1NC(=O)[C@@H](CC(C)C)N(C)C(=O)[C@@H](C)N(C)C(=O)[C@H]2CCCN2C(=O)[C@H](Cc2ccccc2)NC(=O)[C@H](CC(C)C)N(C)C(=O)[C@H]2CCCN2C1=O lists PAMPA 1.7 × 10^-6 cm/s.
The entry for CC(C)C[C@@H]1C(=O)N[C@@H](Cc2ccccc2)CC(=O)N2CCC[C@H]2C(=O)N(C)[C@@H](CC(C)C)C(=O)N[C@@H](Cc2ccccc2)C(=O)N2CCC[C@@H]2C(=O)N(C)[C@H](C)C(=O)N1C lists PAMPA 4.9 × 10^-6 cm/s.
The entry for CC(C)C[C@@H]1NC(=O)[C@H](C)N(C)C(=O)[C@@H]2CCCN2C(=O)[C@H](Cc2ccccc2)NC(=O)[C@H](CC(C)C)NC(=O)[C@@H]2CCCN2C(=O)C[C@H](Cc2ccccc2)NC1=O lists PAMPA 0.6 × 10^-6 cm/s.
The entry for CC(C)C[C@@H]1C(=O)N2CCC[C@H]2C(=O)N(C)[C@H](CC(C)C)C(=O)N[C@@H](Cc2ccccc2)C(=O)N[C@@H](Cc2ccccc2)CC(=O)N[C@H](CC(C)C)C(=O)N1C lists PAMPA 7.4 × 10^-6 cm/s.
The entry for CC(C)C[C@@H]1NC(=O)[C@H](CC(C)C)N(C)C(=O)[C@@H](C)NC(=O)[C@H](Cc2ccccc2)NC(=O)[C@@H](CC(C)C)N(C)C(=O)[C@@H]2CCCN2C1=O lists PAMPA 3.2 × 10^-6 cm/s.
The entry for CC(C)C[C@@H]1C(=O)N[C@@H](Cc2ccccc2)C(=O)N2CCC[C@@H]2C(=O)N[C@H](C)C(=O)N[C@H](CC(C)C)C(=O)N(C)[C@H](CC(C)C)C(=O)N2CCC[C@@H]2C(=O)N1C lists PAMPA 0.22 × 10^-6 cm/s.
The entry for CC(C)C[C@@H]1C(=O)N[C@@H](Cc2ccccc2)C(=O)N[C@@H](Cc2ccccc2)CC(=O)N(C)[C@@H](CC(C)C)C(=O)N(C)[C@H](CC(C)C)C(=O)N2CCC[C@@H]2C(=O)N1C lists PAMPA 5.8 × 10^-6 cm/s.
The entry for CC(C)C[C@@H]1C(=O)N[C@H](CC(C)C)C(=O)N2CCC[C@@H]2C(=O)N(C)[C@@H](CC(C)C)C(=O)N[C@@H](Cc2ccccc2)C(=O)N[C@@H](C)C(=O)N1C lists PAMPA 15 × 10^-6 cm/s.
The entry for CC(C)C[C@H]1NC(=O)[C@H](C)N(C)C(=O)[C@@H]2CCCN2C(=O)[C@H](Cc2ccccc2)NC(=O)CN(Cc2ccccc2)C(=O)[C@@H]2CCCN2C(=O)[C@H](CC(C)C)N(C)C1=O lists PAMPA 1.3 × 10^-6 cm/s.
The entry for CC(C)C[C@@H]1C(=O)N[C@@H](Cc2ccccc2)C(=O)N2CCC[C@@H]2C(=O)N(C)[C@H](C)C(=O)N[C@H](CC(C)C)C(=O)N[C@H](CC(C)C)C(=O)N2CCC[C@@H]2C(=O)N1C lists PAMPA 0.71 × 10^-6 cm/s.
The entry for CC(C)C[C@@H]1NC(=O)[C@H](CC(C)C)N(C)C(=O)C[C@H](Cc2ccccc2)NC(=O)[C@H](Cc2ccccc2)NC(=O)[C@H](CC(C)C)N(C)C(=O)[C@@H]2CCCN2C1=O lists PAMPA 6.6 × 10^-6 cm/s.
The entry for CCCN1CC(=O)N(C)[C@H](CC(C)C)C(=O)N(Cc2ccccc2)CC(=O)N2CCC[C@H]2C(=O)N(C)[C@H](CC(C)C)C(=O)N[C@@H](Cc2ccccc2)C(=O)N2CCC[C@H]2C1=O lists PAMPA 2.5 × 10^-6 cm/s.
The entry for CC(C)C[C@@H]1NC(=O)[C@H](CC(C)C)N(C)C(=O)[C@H](C)NC(=O)[C@@H]2CCCN2C(=O)[C@H](Cc2ccccc2)NC(=O)[C@H](CC(C)C)N(C)C(=O)[C@H]2CCCN2C1=O lists PAMPA 5.2 × 10^-6 cm/s.
The entry for CC(C)C[C@@H]1NC(=O)[C@@H](CC(C)C)N(C)C(=O)[C@@H](C)N(C)C(=O)[C@H](Cc2ccccc2)NC(=O)[C@@H](CC(C)C)NC(=O)[C@@H]2CCCN2C1=O lists PAMPA 11 × 10^-6 cm/s.

The 2 lowest values of PAMPA among the entries above:

CC(C)C[C@@H]1C(=O)N[C@@H](Cc2ccccc2)C(=O)N2CCC[C@@H]2C(=O)N[C@H](C)C(=O)N[C@H](CC(C)C)C(=O)N(C)[C@H](CC(C)C)C(=O)N2CCC[C@@H]2C(=O)N1C has PAMPA 0.22 × 10^-6 cm/s.
CC(C)C[C@@H]1NC(=O)[C@H](C)N(C)C(=O)[C@@H]2CCCN2C(=O)[C@H](Cc2ccccc2)NC(=O)[C@H](CC(C)C)NC(=O)[C@@H]2CCCN2C(=O)C[C@H](Cc2ccccc2)NC1=O has PAMPA 0.6 × 10^-6 cm/s.